We go through three compounds from patent US8552205B2, “Derivatives of 6,7-dihydro-5H-imidazo[1,2-alpha]imidazole-3-carboxylic acid amides” (Boehringer Ingelheim International GmbH, priority 2007, dated 2013).

Sequences of proteins named here, by UniProt entry; tags and fusion partners are left off. Residues count along the entry.
UniProt P05107, 23-769 limits assumed: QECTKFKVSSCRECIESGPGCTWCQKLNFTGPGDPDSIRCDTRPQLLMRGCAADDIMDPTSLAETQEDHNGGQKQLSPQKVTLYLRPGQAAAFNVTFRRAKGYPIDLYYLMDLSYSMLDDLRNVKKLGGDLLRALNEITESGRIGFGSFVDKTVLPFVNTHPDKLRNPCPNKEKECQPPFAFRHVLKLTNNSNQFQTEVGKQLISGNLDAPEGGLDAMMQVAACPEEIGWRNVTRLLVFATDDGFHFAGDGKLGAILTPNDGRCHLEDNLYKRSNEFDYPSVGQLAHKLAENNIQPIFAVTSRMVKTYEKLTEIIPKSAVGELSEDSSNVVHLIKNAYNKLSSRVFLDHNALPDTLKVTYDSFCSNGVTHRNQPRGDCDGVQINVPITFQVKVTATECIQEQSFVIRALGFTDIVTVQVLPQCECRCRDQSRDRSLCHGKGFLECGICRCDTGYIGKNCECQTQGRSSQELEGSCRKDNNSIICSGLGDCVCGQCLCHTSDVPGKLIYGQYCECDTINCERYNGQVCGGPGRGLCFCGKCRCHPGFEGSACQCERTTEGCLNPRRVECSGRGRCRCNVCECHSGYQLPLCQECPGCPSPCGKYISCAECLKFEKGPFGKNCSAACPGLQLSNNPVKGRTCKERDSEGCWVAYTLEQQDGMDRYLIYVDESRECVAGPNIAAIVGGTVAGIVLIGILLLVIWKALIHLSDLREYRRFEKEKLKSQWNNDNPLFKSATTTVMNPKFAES
UniProt P20701, 26-1170 limits assumed: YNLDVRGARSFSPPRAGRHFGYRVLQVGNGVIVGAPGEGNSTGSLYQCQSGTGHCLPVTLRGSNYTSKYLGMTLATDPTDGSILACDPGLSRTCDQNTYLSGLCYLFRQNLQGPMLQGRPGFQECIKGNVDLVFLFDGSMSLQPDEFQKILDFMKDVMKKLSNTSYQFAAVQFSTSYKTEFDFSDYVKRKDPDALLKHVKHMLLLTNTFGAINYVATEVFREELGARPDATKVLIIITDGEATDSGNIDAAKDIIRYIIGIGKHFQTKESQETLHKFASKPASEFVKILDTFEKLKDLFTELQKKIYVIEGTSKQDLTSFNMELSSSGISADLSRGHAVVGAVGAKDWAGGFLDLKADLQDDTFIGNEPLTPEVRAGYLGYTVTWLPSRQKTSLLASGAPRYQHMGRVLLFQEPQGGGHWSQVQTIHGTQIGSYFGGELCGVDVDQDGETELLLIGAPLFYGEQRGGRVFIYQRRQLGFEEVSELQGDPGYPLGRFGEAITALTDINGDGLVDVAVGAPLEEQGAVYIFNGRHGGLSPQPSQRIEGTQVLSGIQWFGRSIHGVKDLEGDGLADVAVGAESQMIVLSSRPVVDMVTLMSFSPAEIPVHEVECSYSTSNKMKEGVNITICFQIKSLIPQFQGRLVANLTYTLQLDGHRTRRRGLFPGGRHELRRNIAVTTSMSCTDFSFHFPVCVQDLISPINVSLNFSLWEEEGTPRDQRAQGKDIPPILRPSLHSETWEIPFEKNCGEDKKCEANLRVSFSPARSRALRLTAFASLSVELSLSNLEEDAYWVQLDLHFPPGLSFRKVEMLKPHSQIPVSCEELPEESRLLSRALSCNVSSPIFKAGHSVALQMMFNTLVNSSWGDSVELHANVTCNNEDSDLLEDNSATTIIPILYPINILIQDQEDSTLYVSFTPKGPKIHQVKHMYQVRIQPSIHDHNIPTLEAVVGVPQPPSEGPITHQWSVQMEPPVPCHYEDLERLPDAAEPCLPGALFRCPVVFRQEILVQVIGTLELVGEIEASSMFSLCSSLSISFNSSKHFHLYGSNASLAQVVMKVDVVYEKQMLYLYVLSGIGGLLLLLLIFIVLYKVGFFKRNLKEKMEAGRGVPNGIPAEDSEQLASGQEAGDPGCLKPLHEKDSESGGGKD

In the assay the target is LFA-1 (CD18/CD11a) binding to ICAM-1 (Homo sapiens, UniProt P05107+P20701). The experiment in a line: Assay to determine inhibition of LFA-1 binding to ICAM-1. As to conditions: read-out: LFA/ICAM1 Kd; immunopurified LFA-1 binding to plate-bound sICAM-1. The text has this: Assay to Determine Inhibition of LFA-1 Binding to ICAM-1
This assay protocol is designed to study the direct antagonism, by a test compound, of the interaction of ICAM-1 with the Leukointegrin CD18/CD11a (LFA-1).
LFA-1 is immunopurified using the TS2/4 antibody from a 20 g pellet of human JY or SKW3 cells, utilizing a protocol previously described (Dustin, M. J.; et al., J. Immunol. 1992, 148, 2654-2660). The LFA-1 is purified from SKW3 lysates by immunoaffinity chromatography on TS2/4 LFA-1 mAb Sepharose and eluted at pH 11.5 in the presence of 2 mM MgCl2 and 1% octylglucoside. After collection and neutralization of fractions from the TS2/4 column, samples are pooled and precleared with Protein G agarose.
A soluble form of ICAM-1 is constructed, expressed, purified and characterized as previously described (Marlin, S.; et al., Nature, 1990, 344, 70-72 and see Arruda, A.; et al., Antimicrob. Agents Chemother. 1992, 36, 1186-1192). […]
LFA-1 binding to ICAM-1 is monitored by first incubating sICAM-1 at 40 μg/mL in Dulbecco's phosphate buffered saline with calcium and magnesium, additional 2 mM MgCl2 and 0.1 mM PMSF (Diluting Buffer) in a 96-well plate for 30 min at room temperature. […] The bound LFA-1 is detected by the addition of a polyclonal antibody directed against a peptide corresponding to the CD18 cytoplasmic tail in a 1:100 dilution with Diluting Buffer and 1% BSA and allowed to incubate for 45 min at 37° C. Wells are washed 3 times with Diluting Buffer and the bound polyclonal antibody is detected by the addition of a 1:4000 dilution of horse radish peroxidase conjugated to goat immunoglobulin directed against rabbit immunoglobulin. This reagent is allowed to incubate for 20 min at 37° C., wells are washed as above and the substrate for the horse radish peroxidase is added to each well to develop a quantitative colorimetric signal proportional to the amount of LFA-1 bound to sICAM-1. […]
For `C[C@@]1(Cc2ccc(C#N)cc2)C(=O)N(c2cc(Cl)cc(Cl)c2)c2ncc(C(=O)NC3(C(=O)NC4(c5nc(N6CCOCC6)no5)CC4)CC3)n21`, the Kd turned out to be 8.2 nM.

As to `Cc1noc(C2(NC(=O)C3(NC(=O)c4cnc5n4[C@](C)(Cc4ccc(C#N)cc4)C(=O)N5c4cc(Cl)cc(Cl)c4)CC3)CC2)n1`, the Kd came out at 6.6 nM.

As for `C[C@H](NC(=O)c1cnc2n1[C@](C)(Cc1ccc(C#N)cc1)C(=O)N2c1cc(Cl)cc(Cl)c1)C(=O)N[C@H]1CC[C@@H](C(=O)O)C1`, the Kd was 420 nM.
